# Laboratory results published in article PMC5030486, “Neprilysin is a Mediator of Alternative Renin-Angiotensin-System Activation in the Murine and Human Kidney” (Scientific Reports, 2016).
# Target: T1, NEP (Mus musculus, UniProt Q61391)
# T1 sequence (Q61391 1-750): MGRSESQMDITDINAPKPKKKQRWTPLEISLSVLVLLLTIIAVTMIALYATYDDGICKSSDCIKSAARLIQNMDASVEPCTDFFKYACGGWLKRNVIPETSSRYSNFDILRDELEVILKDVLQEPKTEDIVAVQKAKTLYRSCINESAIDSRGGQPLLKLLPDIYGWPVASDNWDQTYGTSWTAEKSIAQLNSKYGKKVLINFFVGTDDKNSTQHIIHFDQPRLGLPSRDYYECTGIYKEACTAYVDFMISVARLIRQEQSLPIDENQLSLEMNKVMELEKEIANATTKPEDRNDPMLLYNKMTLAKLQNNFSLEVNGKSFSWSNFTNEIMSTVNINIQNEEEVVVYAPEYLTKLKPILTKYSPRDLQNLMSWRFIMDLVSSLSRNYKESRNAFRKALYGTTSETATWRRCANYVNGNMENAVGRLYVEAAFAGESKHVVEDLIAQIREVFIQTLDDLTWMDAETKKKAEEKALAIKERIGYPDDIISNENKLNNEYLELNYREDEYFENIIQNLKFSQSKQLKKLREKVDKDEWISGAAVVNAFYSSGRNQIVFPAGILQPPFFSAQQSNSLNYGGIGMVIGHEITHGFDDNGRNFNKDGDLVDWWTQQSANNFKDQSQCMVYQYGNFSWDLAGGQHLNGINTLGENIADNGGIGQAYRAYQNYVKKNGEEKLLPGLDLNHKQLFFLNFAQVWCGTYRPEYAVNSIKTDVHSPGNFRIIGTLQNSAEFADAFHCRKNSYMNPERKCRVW
# Test: MALDI-Imaging of Ang I to Ang-(1-7) turnover in murine kidney cryo-sections
# Conditions: murine kidney slices incubated with Ang I, DL-thiorphan 0 μM – 100 μM
smiles,measurement,value
O=C(O)CNC(=O)C(CS)Cc1ccccc1 (racemic) [DL-thiorphan],Ang-(1-7) signal in renal cortex with increasing inhibitor concentration,dose-depended DL-thiorphan-sensitive Ang-(1-7) signal
